# Values quoted from earlier work in article PMC8608346.
# pKd: −log10 of the molar value.
# Target: GPR1 (Homo sapiens) (UniProt P46091)
substance,measurement,value
FAM19A1 (from UniProt Q7Z5A9),pKd,10.85
